Laboratory results published in ChEMBL document CHEMBL5385848, “Discovery of novel hydroxyamidine based indoleamine 2,3-dioxygenase 1 (IDO1) and thioredoxin reductase 1 (TrxR1) dual inhibitors” (Eur J Med Chem, 2023).

By UniProt entry, the sequences of proteins in these tests, tags left out. Where a name states a change or a piece, a line headed by the entry shows the natural chain unless it says otherwise.
UniProt P48775: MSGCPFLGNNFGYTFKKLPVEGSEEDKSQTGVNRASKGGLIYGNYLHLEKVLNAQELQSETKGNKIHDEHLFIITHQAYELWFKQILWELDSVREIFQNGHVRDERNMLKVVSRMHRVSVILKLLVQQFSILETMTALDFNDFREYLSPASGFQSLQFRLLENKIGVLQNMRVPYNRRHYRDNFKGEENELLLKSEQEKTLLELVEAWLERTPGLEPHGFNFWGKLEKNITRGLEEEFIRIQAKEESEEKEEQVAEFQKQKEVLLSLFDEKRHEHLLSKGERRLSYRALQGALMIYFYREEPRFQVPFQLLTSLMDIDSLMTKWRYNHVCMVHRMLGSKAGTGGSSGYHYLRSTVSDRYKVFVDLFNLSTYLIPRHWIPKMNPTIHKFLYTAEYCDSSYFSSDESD

Biological target: Tryptophan 2,3-dioxygenase (Homo sapiens, UniProt P48775)
Assay: Inhibition of TDO (unknown origin) using L-Trp as substrate incubated for 75 mins

IC50: 410 nM
Compound: Fc1ccc2c(/C=C/c3cccnc3)c[nH]c2c1
